Conditions: forms neutral aqueous solutions

Question: For ferric ammonium citrate, which “pH of aqueous solutions” value is on record?
Answer: ~7

Source: patent EP4114474B1, “HEMOSTATIC AGENT” (Industria Farmaceutica Nova Argentia S.r.l., priority 2020, dated 2021)
